Laboratory results from BindingDB's records for doi:10.1021/jm00350a009 (1982).

Experiment: Compound was tested for inhibition of [3H]dihydroalprenolol radioligand binding to Beta-1 adrenergic receptor in dog heart.

IC50: 4.9 nM
Structure (SMILES): C=CCc1ccccc1OC[C@@H](O)CNC(C)C [ALPRENOLOL,(-)]
